Assay results reported in ChEMBL document CHEMBL4706546, “Sulfoximines as Rising Stars in Modern Drug Discovery? Current Status and Perspective on an Emerging Functional Group in Medicinal Chemistry” (J Med Chem, 2020).
pIC50: −log10 of the molar value.

Molecular target: T1, Sterol 26-hydroxylase, mitochondrial (Homo sapiens, UniProt Q02318)
T1 sequence (Q02318 whole entry): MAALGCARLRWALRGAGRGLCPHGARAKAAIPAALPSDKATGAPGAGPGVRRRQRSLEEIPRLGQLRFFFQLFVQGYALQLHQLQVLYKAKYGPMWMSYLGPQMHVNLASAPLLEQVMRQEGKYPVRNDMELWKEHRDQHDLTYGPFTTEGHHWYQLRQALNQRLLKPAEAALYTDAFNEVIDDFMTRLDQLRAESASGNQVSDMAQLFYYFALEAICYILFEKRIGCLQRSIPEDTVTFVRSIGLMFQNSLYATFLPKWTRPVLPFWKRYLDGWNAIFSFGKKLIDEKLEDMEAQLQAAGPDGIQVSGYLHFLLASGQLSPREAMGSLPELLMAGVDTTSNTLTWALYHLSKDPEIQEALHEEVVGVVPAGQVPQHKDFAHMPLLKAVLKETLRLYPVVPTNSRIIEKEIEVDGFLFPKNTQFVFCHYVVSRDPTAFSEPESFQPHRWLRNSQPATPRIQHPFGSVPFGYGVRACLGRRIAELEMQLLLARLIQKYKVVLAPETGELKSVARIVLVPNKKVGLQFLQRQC
Experiment: biochemical

For `C=C1/C(=C\C=C2/CCC[C@]3(C)[C@@H]([C@H](C)CC[S@](=N)(=O)c4ccccc4)CC[C@@H]23)C[C@@H](O)C[C@@H]1O`, the pIC50 was < 6.00.
